Results from patent US7317007B2, “Benzothiazole derivatives with activity as adenosine receptor ligands” (Hoffmann-La Roche Inc., priority 2000, dated 2008).

Biological target: T1, human adenosine A2A receptor (Homo sapiens, UniProt P29274)
T1 construct: expressed in transfected cells; host or cells: CHO cells, Semliki Forest virus expression system; washed membrane pellet used
Assay: [3H]-SCH-58261 binding assay at the human adenosine A2A receptor
Details: hA2A binding; [3H]-SCH-58261 1 nM; membranes of CHO cells recombinantly expressing the receptor; Ki by Cheng-Prussoff equation
Method: Human Adenosine A2A Receptor
The human adenosine A2A receptor was recombinantly expressed in chinese hamster ovary (CHO) cells using the semliki forest virus expression system. Cells were harvested, washed twice by centrifugation, homogenised and again washed by centrifugation. The final washed membrane pellet was suspended in a Tris (50 mM) buffer containing 120 mM NaCl, 5 mM KCl, 2 mM CaCl2 and 10 mM MgCl2 (pH 7.4) (buffer A). The [^3H]-SCH-58261 (Dionisotti et al., 1997, Br J Pharmacol 121, 353; 1 nM) binding assay was carried out in 96-well plates in the presence of 2.5 μg of membrane protein, 0.5 mg of Ysi-poly-1-lysine SPA beads and 0.1 U adenosine deaminase in a final volume of 200 μl of buffer A. Non-specific binding was defined using xanthine amine congener (XAC; 2 μM). Compounds were tested at 10 concentrations from 10 μM-0.3 nM. All assays were conducted in duplicate and repeated at least two times. Assay plates were incubated for 1 hour at room temperature before centrifugation and then bound ligand determined using a Packard Topcount scintillation counter. IC50 values were calculated using a non-linear curve fitting program and Ki values calculated using the Cheng-Prussoff equation.

Substance: 1-Oxo-1l 4-thiomorpholine-4-carboxylic acid (4-methoxy-7-phenyl-benzothiazol-2-yl)-amide [Example 159]
- pKi value: 8.9
